Measurements as given in US12472180B2, “Combinations for treatment of NAFLD/NASH and related diseases” (Pfizer Inc., priority 2020, dated 2025).

Tested on: adults with non-alcoholic fatty liver disease (NAFLD)
Conditions: for total number (%) of subjects exceeding triglyceride threshold >400 mg/dl / total number (%) of subjects exceeding triglyceride threshold >600 mg/dl / total number (%) of subjects exceeding triglyceride threshold >800 mg/dl: ACCi 15 mg BID, DGAT2i 300 mg BID, NAFLD patients; for Serum triglycerides % Change from Placebo, LS Mean: Study Day 42, Cmpd A 15 mg, Cmpd D 300 mg Q12H

Compound	total number (%) of subjects exceeding triglyceride threshold >400 mg/dl	total number (%) of subjects exceeding triglyceride threshold >600 mg/dl	total number (%) of subjects exceeding triglyceride threshold >800 mg/dl	Serum triglycerides % Change from Placebo, LS Mean
COc1cc(C(=O)N2CCC3(CC2)CC(=O)c2c(cnn2C(C)C)C3)cc(-c2ccc(C(=O)O)cc2)n1 [Compound A, 4-(4-(1-isopropyl-7-oxo-1,4,6,7-tetrahydrospiro[indazole-5,4′-piperidine]-1′-carbonyl)-6-methoxypyridin-2-yl)benzoic acid]	11 (37.9)	4 (13.8)	3 (10.3)	marked triglyceride elevation
CCOc1cccnc1Oc1cncc(-c2ncc(C(=O)N[C@H]3CCOC3)cn2)c1 [Compound D, (S)-2-(5-((3-ethoxypyridin-2-yl)oxy)pyridin-3-yl)-N-(tetrahydrofuran-3-yl)pyrimidine-5-carboxamide]	2 (7.4)	1 (3.7)	0	modest decrease in triglycerides
